Data on 103 compounds can be found in PubChem BioAssay AID1779 (Sanford-Burnham Center for Chemical Genomics, 2009).

Amino acid sequences for entries named in this document (tags omitted).
UniProt Q9Y2R2, whole entry, looked up: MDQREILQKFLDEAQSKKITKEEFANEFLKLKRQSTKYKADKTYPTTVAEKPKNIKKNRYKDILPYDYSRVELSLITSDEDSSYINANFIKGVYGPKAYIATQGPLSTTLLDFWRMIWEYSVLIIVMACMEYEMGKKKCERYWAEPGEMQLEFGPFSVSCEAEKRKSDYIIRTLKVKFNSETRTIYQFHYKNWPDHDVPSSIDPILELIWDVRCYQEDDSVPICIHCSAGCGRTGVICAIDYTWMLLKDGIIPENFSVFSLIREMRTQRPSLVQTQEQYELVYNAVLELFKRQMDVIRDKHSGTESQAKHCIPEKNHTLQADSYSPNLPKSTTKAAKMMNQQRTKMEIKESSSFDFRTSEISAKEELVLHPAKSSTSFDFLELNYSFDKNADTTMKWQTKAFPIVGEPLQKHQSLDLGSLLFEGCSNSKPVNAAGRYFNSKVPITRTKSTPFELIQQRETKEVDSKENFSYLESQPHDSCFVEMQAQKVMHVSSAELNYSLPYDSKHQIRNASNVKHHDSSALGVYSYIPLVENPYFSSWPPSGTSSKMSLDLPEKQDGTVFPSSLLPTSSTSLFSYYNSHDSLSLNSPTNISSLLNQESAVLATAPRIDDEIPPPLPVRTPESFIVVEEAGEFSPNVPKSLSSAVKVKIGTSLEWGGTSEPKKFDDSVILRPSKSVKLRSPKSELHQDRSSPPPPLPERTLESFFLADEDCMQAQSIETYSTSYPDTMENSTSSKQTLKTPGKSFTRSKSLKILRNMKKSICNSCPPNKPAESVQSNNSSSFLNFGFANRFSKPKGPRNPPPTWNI

Broadly, the inhibition is the drop in the measured response relative to a control, in per cent.

“And” between values parts separate entries of the source, which are not always exact repeats. Equal values may be shown once. The entries are a selection whose mix differs from that of the whole data set. The source made the active and inactive calls. No stated cut-off is given here; in the data, active means inhibition above about 50%; inactive means the rest.

For this test, the target named is Tyrosine-protein phosphatase non-receptor type 22 (Homo sapiens) (UniProt Q9Y2R2). Briefly: PTPN22 lymphoid phosphatase activity blockers – biochemical, fluorescence intensity, uHTS (AID 1779).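 Further: plate controls were vehicle with enzyme for no effect and no enzyme for full effect.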 The note with it: recombinant LYP phosphatase, at 11.5 µM, active compounds read high.
As for `CCN(N=Nc1nonc1N)c1nonc1N`, the inhibition was inactive: -7.4%.

Turning to `Nc1cccc2ccc([As](=O)(O)O)cc12`, the inhibition is inactive: -2.5%.

As to `O=[N+]([O-])c1cc([N+](=O)[O-])c(CCN2CCOCC2)c([N+](=O)[O-])c1`, the inhibition is inactive: -1%.

As to `Cc1ccc(NP(=O)(Oc2ccccc2F)Oc2ccccc2F)nc1`, the inhibition is inactive: -8.9%.

Consider `Cc1cc(SC(NC(=O)c2ccc(F)cc2)C(Cl)(Cl)Cl)ncn1` (stereo not drawn), for which the inhibition was inactive: -5.2%.

Take `CCOP(=O)(Nc1ccccc1)OCC`: the inhibition was inactive: -12.7% and inactive: 0.9%.

For `CC(=O)Nc1ccc([As](=O)(O)O)cc1`, the inhibition was inactive: -6.4%.

Turning to `O=C(O)c1ccccc1[As](=O)(O)O`, the inhibition was inactive: -3.8%.

On to `O=P(Nc1nc2ccc(Cl)cc2s1)(c1ccccc1)c1ccccc1`, for which the inhibition is inactive: -1.8%.

Consider `Nc1cc(N)c2nonc2c1[N+](=O)[O-]`, for which the inhibition is inactive: 0.3%.

Take `CC(C)CC(=O)NC(Sc1ccc(Cl)cc1)C(Cl)(Cl)Cl` (stereo not drawn): the inhibition was inactive: 0.4%.

As for `O=C(NC(Sc1ccncn1)C(Cl)(Cl)Cl)c1ccccc1` (stereo not drawn), the inhibition was inactive: -1.4%.

As to `Cc1c2non([O-])c-2c(C)[n+](=O)[n+]1[O-]`, the inhibition was inactive: 19.7%.

For the compound `Oc1ccccc1CNc1ccccn1`, the inhibition is inactive: -11.5%.

Consider `Cc1ccc(OP(=O)(Nc2nccs2)Oc2ccc(C)cc2)cc1`, for which the inhibition was inactive: -3.6%.

With `COc1ccccc1OP(=O)(Nc1ccc(C)cn1)Oc1ccccc1OC`, the inhibition is inactive: -2.2%.

Consider `CN1CCCC(OC(=O)C(c2ccccc2)c2ccccc2)C1` (stereo not drawn), for which the inhibition is inactive: -2.4%.

For `Clc1ccc(Cl)c(NC2=NCC(CBr)S2)c1` (stereo not drawn), the inhibition is inactive: -8.7%.

Take `NC(=O)c1cc([N+](=O)[O-])cc([N+](=O)[O-])c1N`: the inhibition was inactive: -3.9%.

Take `Cc1ccc(N/C(=N/P(=O)(N2CCOCC2)N2CCOCC2)N2CCOCC2)cc1`: the inhibition is inactive: -5.4%.

Take `CN(C)C(=O)OCCc1n(C)cc[n+]1C`: the inhibition is inactive: 2%.

With `CC(C)=N/N=C(\N)N[N+](=O)[O-]`, the inhibition was inactive: -6.6%.

Turning to `CC1CCN(C(=O)Oc2c(Cl)cc(Cl)c3cccnc23)CC1`, the inhibition was inactive: -6.6%.

On to `C[N+]1=C2C=CC=CC=C2SC12C([N+](=O)[O-])=CC([N+](=O)[O-])=C[C-]2[N+](=O)[O-]` (stereo not drawn), for which the inhibition was inactive: 3.6%.

Turning to `Nc1ccc([As](=O)(O)c2ccc(N)cc2)cc1`, the inhibition is inactive: -6.8%.

As to `CCN(/C(=N/P(=O)(N1CCOCC1)N1CCOCC1)N1CCOCC1)c1ccc(OC)cc1`, the inhibition is inactive: 2.4%.

Turning to `CC(=O)N1C2C3N(C(C)=O)C1C1N(C(C)=O)C(C(N1C(C)=O)N3C(C)=O)N2C(C)=O`, the inhibition is inactive: -6.6%.

With `O=[N+]([O-])c1cccc2n[nH]nc12`, the inhibition was inactive: 2.7%.

In the case of `O=[N+]([O-])c1cc([N+](=O)[O-])c(CCNc2ccccc2)c([N+](=O)[O-])c1`, the inhibition was inactive: -4.7%.

`CCc1nc2c(n1)c1c(non1O)c1c2no[n+]1[O-]`: the inhibition was inactive: -6.5%.

Consider `Cc1ccc(NP(=O)(Oc2ccccc2)Oc2ccccc2)nc1`, for which the inhibition was inactive: -2%.

In the case of `COc1ccc(C2=NCC(CBr)S2)cc1` (stereo not drawn), the inhibition is inactive: 0.7%.

Turning to `O=[N+]([O-])c1cccc(NC2=NCC(CBr)S2)c1` (stereo not drawn), the inhibition is inactive: -7.5%.

Take `O=C(O)CNc1ccc([As](=O)(O)O)cc1`: the inhibition is inactive: -6.1%.

As for `CC(C)(C)C(=O)NC(Sc1ccncn1)C(Cl)(Cl)Cl` (stereo not drawn), the inhibition is inactive: -2%.

For `O=[N+]([O-])c1ncn(CCn2ncnc2[N+](=O)[O-])n1`, the inhibition is inactive: 2.9%.

Take `O=C(Nc1cc([As](=O)(O)O)ccc1O)c1ccccc1`: the inhibition was inactive: -3.7%.

As for `C(Cc1nn[nH]n1)Cc1nn[nH]n1`, the inhibition is inactive: -5.9%.

As to `Nc1ccc([As](=O)(O)c2ccc([N+](=O)[O-])cc2)cc1`, the inhibition was inactive: -4.2%.

As for `O=C(OC1CN2CCC1CC2)c1cccc(Cl)c1` (stereo not drawn), the inhibition was inactive: -1.8%.

As to `CC(=O)NC(SC(=S)N(C)C)C(Cl)(Cl)Cl` (stereo not drawn), the inhibition is inactive: -4.6%.

Regarding `O=[N+]([O-])c1ncn(CCn2cnc([N+](=O)[O-])n2)n1`, the inhibition was inactive: -10.8%.

In the case of `O=[N+]([O-])c1ccc(O)c(/C=N/Nc2ccc([N+](=O)[O-])cc2[N+](=O)[O-])c1`, the inhibition is inactive: -2.8%.

Regarding `O=[As](O)(c1ccccc1)c1ccc(O)cc1`, the inhibition was inactive: -10.5%.

As for `C[C@H]1OP(=O)(Oc2ccccc2)[C@H](O)[C@H](O)[C@H]1N=[N+]=[N-]` (stereo partly drawn), the inhibition was inactive: -10.1%.

Take `O=P(Nc1nc2ccccc2s1)(c1ccccc1)c1ccccc1`: the inhibition is inactive: -3.8%.

Take `CN(C)C1(CNC(=O)c2ccc(Cl)c(S(N)(=O)=O)c2)CCCCC1`: the inhibition is inactive: -1.3%.

Take `O=P(Nc1ccccn1)(c1ccc(Br)cc1)c1ccc(Br)cc1`: the inhibition is inactive: -6.2%.

Take `c1nnnn1CCn1cnnn1`: the inhibition is inactive: -9.4%.

In the case of `O=P(Nc1nccs1)(c1ccccc1)c1ccccc1`, the inhibition is inactive: 3.3%.

In the case of `CC(C)C(=O)NC(Sc1ccccc1)C(Cl)(Cl)Cl` (stereo not drawn), the inhibition was inactive: -1.6%.

Take `CC(=O)Nc1ccc(Oc2c([N+](=O)[O-])cc([N+](=O)[O-])cc2[N+](=O)[O-])cc1`: the inhibition is inactive: 0.1%.

Turning to `CC(=O)Nc1ccc([As](=O)(O)O)c(O)c1`, the inhibition was inactive: -5.9%.

Turning to `CC(=O)c1ccc(N2CC2c2ccncc2)cc1` (stereo not drawn), the inhibition was inactive: -3.9%.

For `C[C@H]1OP(=O)(Oc2ccccc2)C[C@@H]2O[C@@H]21` (stereo partly drawn), the inhibition was inactive: -7%.

With `C[C@@H]1C=CCP(=O)(Oc2ccccc2)O1` (stereo partly drawn), the inhibition was inactive: -7.9%.

Consider `CC(C)(C)C(=O)NC(Sc1ccccc1)C(Cl)(Cl)Cl` (stereo not drawn), for which the inhibition is inactive: -2.8%.

For `CCOc1ccc(C2=NCC(CBr)S2)cc1` (stereo not drawn), the inhibition is inactive: -3.2%.

`O=P1(Nc2nc3ccc(Cl)cc3s2)COc2ccccc2O1` (stereo not drawn): the inhibition is inactive: -1.1%.

Consider `O=c1c2cc([N+](=O)[O-])ccc2[nH]c2c([N+](=O)[O-])cc([N+](=O)[O-])cc12`, for which the inhibition is inactive: -5%.

Consider `CN(C)C(=O)Oc1noc2ccccc12`, for which the inhibition is inactive: -2.8%.

In the case of `Cc1ccccc1OP(=O)(Nc1ccccn1)Oc1ccccc1C`, the inhibition is inactive: -3.4%.

For the compound `CC(=O)NC(SC(=S)N(CC(C)C)CC(C)C)C(Cl)(Cl)Cl` (stereo not drawn), the inhibition is inactive: -4.9%.

With `Cc1ccc(OP(=O)(Nc2ccccn2)Oc2ccc(C)cc2)cc1`, the inhibition was inactive: -3%.

For the compound `COC(=O)c1cc2c(s1)N=C(c1ccccc1)N(C)P2(=O)N1CCOCC1` (stereo not drawn), the inhibition is inactive: 6%.

For `CCC(=O)N1C2C3N(C(=O)CC)C1C1N(C(=O)CC)C(C(N1C(=O)CC)N3C(=O)CC)N2C(=O)CC`, the inhibition was inactive: -7.5%.

In the case of `O=C(OC1CN2CCC1CC2)c1ccccc1` (stereo not drawn), the inhibition is inactive: -7.8%.

Regarding `O=C(NC1CCS(=O)(=O)C1)NP(=S)(Oc1ccccc1)Oc1ccccc1` (stereo not drawn), the inhibition is inactive: -5%.

Take `CCNC(=S)/N=C(\N)N[N+](=O)[O-]`: the inhibition was inactive: -4.5%.

Regarding `Cc1ccc(NP(=O)(Oc2cccc(C)c2)Oc2cccc(C)c2)nc1`, the inhibition was inactive: -6.2%.

Take `CCOC(=O)NC(Sc1ccccc1)C(Cl)(Cl)Cl` (stereo not drawn): the inhibition is inactive: -13.5%.

As to `c1ccc(-c2nn[nH]n2)c(-c2nn[nH]n2)c1`, the inhibition was inactive: 0.6%.

Consider `O=[N+]([O-])c1ccc2c(c1)nnn2O`, for which the inhibition was inactive: -2.4%.

Regarding `CCOP1(=S)c2c(C)nn(CCC#N)c2N=C(c2ccc(F)cc2)N1C` (stereo not drawn), the inhibition is inactive: -3.8%.

As for `CN(C(=O)Cc1ccccc1)[C@@H]1CC[C@]2(CCCO2)C[C@H]1N1CCCC1`, the inhibition is inactive: -0.9%.

For `NC(=O)Nc1ccc([As](=O)(O)O)cc1`, the inhibition was inactive: -6.8%.

Take `O=C(O)COc1ccc([As](=O)(O)O)cc1[N+](=O)[O-]`: the inhibition is inactive: 0.6%.

Turning to `Nc1ccccc1[As](=O)(O)c1ccccc1`, the inhibition is inactive: -10.5%.

For the compound `CS(=O)(=O)c1cc([N+](=O)[O-])c2no[n+]([O-])c2c1`, the inhibition is inactive: -4.4%.

As for `O=P(Nc1nccs1)(Oc1ccccc1)Oc1ccccc1`, the inhibition is inactive: -5.5%.

As to `O=P(Nc1nccs1)(c1ccccc1)c1nc2ccccc2s1` (stereo not drawn), the inhibition was inactive: 5.2%.

As to `CCOP1(=S)c2c(C)nn(CCC#N)c2N=C(c2ccccc2F)N1C` (stereo not drawn), the inhibition is inactive: -6.1%.

In the case of `CCOP(=O)(Nc1cccc2ccccc12)OCC`, the inhibition is inactive: -6.3%.

On to `COc1cc(C2NCCC3(OCCO3)C2(C)C)cc(OC)c1OC` (stereo not drawn), for which the inhibition was inactive: -1.8%.

Take `CCCOP(=S)(Nc1nc(N)cc(=O)[nH]1)OCCC`: the inhibition was inactive: -0.8%.

For `Cc1ccc(NCCc2c([N+](=O)[O-])cc([N+](=O)[O-])cc2[N+](=O)[O-])cc1`, the inhibition is inactive: 2.9%.

Take `Nc1cccc2c([As](=O)(O)O)cccc12`: the inhibition was inactive: -4%.

Regarding `Cc1cccc(OCC(=O)OC2CN3CCC2CC3)c1` (stereo not drawn), the inhibition was inactive: -1.7%.

Consider `O=[As](O)(c1cccc(O)c1)c1cccc(O)c1`, for which the inhibition is inactive: -4.8%.

For the compound `CS(=O)(=O)c1ccc(Cl)c(NC(=O)COC(=O)C(O)(c2ccccc2)c2ccccc2)c1`, the inhibition was inactive: -9.7%.

With `O=[As](O)(O)c1cccnc1`, the inhibition is inactive: -7.5%.

Regarding `COc1cc(C(=O)NCC2(N3CCOCC3)CCCCC2)cc(Cl)c1OC(C)C`, the inhibition was inactive: 2.1%.

On to `O=C(OC1CN2CCC1CC2)c1ccc(Cl)cc1` (stereo not drawn), for which the inhibition was inactive: 0.1%.

Take `O=[As](O)(c1ccccc1Br)c1ccccc1Br`: the inhibition was inactive: -7.3%.

Consider `CN(C(=O)Cc1ccc(Cl)c(Cl)c1)[C@@H]1CCCC[C@H]1N1CCCC1`, for which the inhibition was inactive: -4%.

Turning to `CC(C)/C=N\N=C(\N)N[N+](=O)[O-]`, the inhibition was inactive: -8%.

Turning to `CC(C)(C)C(=O)NC(Sc1ncccn1)C(Cl)(Cl)Cl` (stereo not drawn), the inhibition is inactive: -9.3%.

On to `Clc1n[nH]nc1-c1nn[nH][15n]1`, for which the inhibition was inactive: -4.8%.

`CCOP(=O)(Nc1ccc(C)cn1)OCC`: the inhibition is inactive: -4.6%.

On to `CCOP(=O)(NC(=NC(C)c1ccccc1)NC(C)c1ccccc1)OCC` (stereo not drawn), for which the inhibition was inactive: -8.7%.

Take `CCC1=CC2Cc3nc4ccc(Cl)cc4c(N)c3C(C1)C2` (stereo not drawn): the inhibition was inactive: -11.3%.

Consider `O=P1(Nc2ccccn2)COc2ccccc2OC1`, for which the inhibition is inactive: -4.7%.

In the case of `Cc1ccc(OCC(=O)OC2CN3CCC2CC3)cc1` (stereo not drawn), the inhibition is inactive: -1.2%.
